Data on 1 substance can be found in patent publication US20070104696A1, “Use of cell lines to produce active therapeutic proteins” (Multicell Technologies, Inc., priority 2003, published 2007).

The test system of the series is Fa2N-4 Cells and Primary Human Hepatocytes. Description: Comparison of toxicity in Fa2N-4 cells and primary human hepatocytes.

As for Hyperforin, the “Cellular Response (Same / Different) in Fa2N-4 cells versus primary human hepatocytes” value is “Different”.
